Publication PMC6332354, “Synthesis, Biological Evaluation and Molecular Docking Studies of Piperidinylpiperidines and Spirochromanones Possessing Quinoline Moieties as Acetyl-CoA Carboxylase Inhibitors” (Molecules, 2015)

Target: T1, rat ACC1 (Rattus norvegicus, UniProt P11497)
T1 construct: purchased Huawei Pharmaceutical Co. Ltd (Shanghai, China)
Assay: ACC1 in vitro assay (Kinase-Glo Plus luminescence)
Type: biochemical
Conditions: arithmetic means of three experiments, standard deviation in parentheses
Experimental: To investigate the biological activities of the synthesized compounds, the in vitro inhibitory activities of these compounds against both rat ACC1 and ACC2 were evaluated according to the previous experimental method with some changes. The ACC1 and ACC2 enzymes were supplied by Huawei Pharmaceutical Co. Ltd (Shanghai, China). The compound CP-640186 was supplied by Selleck Chemicals Co. Ltd. (Houston, TX, USA) Briefly, the test compounds were diluted in 10% DMSO at 10 μM. Then, the solution was diluted with buffer solution until it reached the required concentration (1 nM to 10 μM) and 5μL of the dilution was added to a 50 μL reaction mixture containing 30 mM HEPES, pH 7.4, 2 mM MgCl2, 2 mM sodium citrate, 1 mM DTT, 25 μM ATP, 16 mM NaHCO3 and 15 μM acetyl-CoA. All of the enzymatic reactions were conducted at 30 °C for 60 min. The assay was performed using Kinase-Glo Plus luminescence kinase assay kit (Beijing, China), which measures kinase activity by quantifying the amount of ATP remaining in solution following a kinase reaction. The luminescent signal from the assay […] with the amount of kinase activity. The same concentrations of DMSO were tested in parallel and used as background control. The inhibition percentage was expressed as the average value from three independent experiments. […]

IC50: 173 nM
SMILES: O=C(c1c2ccccc2cc2ccccc12)N1CCC(N2CCC[C@@H](C(=O)N3CCOCC3)C2)CC1 [CP-640186, reference compound]
